Molecular target: pepsin (EC 3.4.23.1; from porcine stomach mucosa) (Sus scrofa, UniProt P00791)
Assay: Enzymatic release of T3 or T4 by pepsin in Gastric Simulator (GS) buffer
Details: Table 1; 37° C., 4 hours

Protein sequences, listed by entry. Tags and fused reporters are not part of them. Residues count along the entry.
UniProt P00791, 60-385: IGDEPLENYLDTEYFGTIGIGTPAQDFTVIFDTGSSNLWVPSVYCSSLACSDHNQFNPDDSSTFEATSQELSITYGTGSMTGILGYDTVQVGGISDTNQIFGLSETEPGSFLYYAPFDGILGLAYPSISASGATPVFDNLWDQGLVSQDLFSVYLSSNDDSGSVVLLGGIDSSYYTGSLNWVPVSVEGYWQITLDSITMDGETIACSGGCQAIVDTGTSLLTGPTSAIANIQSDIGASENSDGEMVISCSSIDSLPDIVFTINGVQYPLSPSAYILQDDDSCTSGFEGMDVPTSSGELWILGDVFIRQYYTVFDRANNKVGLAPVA

Molecule	enzymatic release of T3, Pepsin
CCCCCCCC(=O)N[C@@H](Cc1cc(I)c(Oc2ccc(OC(=O)CCCCCCC)c(I)c2)c(I)c1)C(=O)O [C8T3(C8), N-Octanoyl-L-triiodothyronine(O-octanoyl)]	0.9
CCCCCCCCCCCCCCCC(=O)Oc1ccc(Oc2c(I)cc(CC(N)C(=O)O)cc2I)cc1I.O=C(O)C(F)(F)F (stereo not drawn) [T3C16, Trioodothyronine Hexadeconoate—TFA]	1.0
mPEG-Amine-Triiodothyronine [mPEG-Amine-T3]	0.0

Source: patent publication US7163918B2, “Iodothyronine compositions” (New River Pharmaceuticals Inc., priority 2000, dated 2007)
